Test results from patent publication US20190144375A1, “NOVEL CARBOCYCLIC COMPOUNDS AS ROR GAMMA MODULATORS” (Glenmark Pharmaceuticals S.A., priority 2015, published 2019).

Chains of the proteins cited; added tags and fusions are not shown. Residues count along the entry.
UniProt P51449, 269-508 limits assumed: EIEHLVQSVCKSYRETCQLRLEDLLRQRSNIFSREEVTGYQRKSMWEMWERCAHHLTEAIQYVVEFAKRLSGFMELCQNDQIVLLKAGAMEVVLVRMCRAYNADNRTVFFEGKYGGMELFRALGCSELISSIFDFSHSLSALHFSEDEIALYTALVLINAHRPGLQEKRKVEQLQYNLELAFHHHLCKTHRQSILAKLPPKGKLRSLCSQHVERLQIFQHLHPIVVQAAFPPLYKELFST

Biological target: GST-tagged ROR gamma ligand binding domain (LBD) (Homo sapiens, UniProt P51449)
Assay: TR-FRET assay for ROR gamma (LanthaScreen, Fluorescein-D22 co-activator peptide recruitment)
Excerpt: The compounds described herein were screened for ROR gamma modulator activity using the TR-FRET assay (LanthaScreen™ available from Invitrogen of Carlsbad, Calif.) as described in JBC 2011, 286, 26: 22707-10; and Drug Metabolism and Disposition 2009, 37, 10: 2069-78.
The assay is based on the principle that binding of the agonist to the ROR gamma causes a conformational change around helix 12 in the ligand binding domain, resulting in higher affinity for the co-activator peptide. ROR gamma being constitutively active, the Fluorescein-D22 co-activator peptide used in the assay is recruited in the absence of a ligand. Binding of the co-activator peptide, causes an increase in the TR-FRET signal while binding of an antagonist decreases the recruitment of the co-activator peptide, causing a decrease in the TR-FRET signal compared to control with no compound. The assay was performed using a two-step procedure, pre-incubation step with the compound followed by the detection step on addition of the anti-GST tagged terbium (Tb) and fluorescein tagged fluorophores as the acceptor.
Test compounds or reference compounds such as T0901317 (Calbiochem) were dissolved in dimethylsulfoxide (DMSO) to prepare 10.0 mM stock solutions and diluted to the desired concentration. The final concentration of DMSO in the reaction was 4% (v/v). The assay mixture was prepared by mixing 10 nM of the GST-tagged ROR gamma ligand binding domain (LBD) in the assay buffer containing 25 mM HEPES, 100 mM NaCl, 5 mM DTT and 0.01% BSA with or without the desired concentration of the compound. The reaction was incubated at 22° C. for 1 hour. […] After shaking for 5 minutes the reaction was further incubated for 1 hour at room temperature and read […] on an Infinite F500 reader as per the kit instructions (Invitrogen). The inhibition of test compound was calculated based on the TR-FRET ratio of 520/495. The activity was calculated as a percent of control reaction. IC50 values were calculated from dose response curve by nonlinear regression analysis using GraphPad Prism software. […]

Cc1cc(C)cc(N(C)C(=O)c2ccc(NC(=O)Cc3ccc(C(F)(F)[C@H](C)O)cc3)cc2)c1
% Inhibition at 1 μM (1 μM compound, TR-FRET ratio 520/495): 89.44% | % Inhibition at 10 μM (10 μM compound, TR-FRET ratio 520/495): 93.27% | IC50 (read-out: IC50 value, dose response curve, class symbols): < 50 nM
